# Ab-91 heavy chain CDR variants: yeast mating affinities

Target peptide (SARS-CoV-2 spike, HR2 region): PDVDLGDISGINAS

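Phage display of a naive human antibody library on the peptide gave the parent. In library AAYL51, one, two or three CDR residues were substituted; doubles and triples were drawn at random. In AlphaSeq, yeast of one mating type display the scFv and yeast of the other type display the target. The frequency of each diploid, read from paired DNA barcodes, reflects how well the two displayed proteins bind. Scores were corrected for input abundance and mapped to Kd with protein pairs of known affinity run in the same pool. Mating was done three times.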

The variants keep the light chain, the linker and the frameworks of Ab-91 (scFv order VL, three GGGGS repeats, VH).
VL: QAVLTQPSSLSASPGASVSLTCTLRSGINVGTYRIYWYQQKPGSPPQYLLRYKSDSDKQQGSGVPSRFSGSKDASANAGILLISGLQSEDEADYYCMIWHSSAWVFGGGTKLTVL
VH: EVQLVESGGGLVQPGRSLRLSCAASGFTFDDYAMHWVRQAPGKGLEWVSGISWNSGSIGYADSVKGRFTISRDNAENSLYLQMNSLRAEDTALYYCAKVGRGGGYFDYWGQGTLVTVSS

Each variant is given by its three heavy chain CDRs, as the data file delimits them; those of the parent are GFTFDDYAMH, GISWNSGSIGYADSVK, VGRGGGYFDY. The read-out is the apparent dissociation constant on a log10 scale (nM): the lower, the stronger. The mean shown is taken over the replicates in which the pair was detected. Where no diploid with the target was found in that replicate, the entry reads "ND": below detection, most likely a poor binder, though not proof of it. Three control strains display no target. For library AAYL51, 21% of the pairings with them gave a signal, with a median of 4.54 and one signal in twenty below 3.26, so weak values seen in few replicates may be background. Also given: how often the same scFv was detected with the empty control strains, with their mean in brackets. In this assay the parent's reference entry averaged 1.86; its copy inside this library read 0.88.

CDR-H1 | CDR-H2 | CDR-H3 | replicates, log10 nM | log10 Kd (nM), mean | signal with controls
GFTFDDYAMH | LISWNSGSIGYADGVK | VGRGGGYFDY | 3.60 5.84 ND | 4.72 | 2/9 (4.65)
GFMFDDYAMH | GISWCSGSIGYACSVK | VGRGGGYFDY | 4.05 4.19 4.17 | 4.14 | 4/9 (4.82)
CFTFDCYAMH | GISWNSGSIGAADSVK | VGRGGGYFDY | 3.56 ND 4.03 | 3.79 | 0/9
GFTCDDYAMH | GISWNSGSIGYADSNK | VGRGYGYFDY | ND ND ND | ND | 1/9 (3.93)
GFTFDDYAMH | GISWNSGSIGYADSNK | PGRCGGYFDY | 3.25 ND ND | 3.25 | 2/9 (4.37)
GFTFDHYAMH | GISWNSGSIGYCDSVK | VGRGGGYFRY | ND ND ND | ND | 3/9 (4.38)
GDTFDDYAMH | GIWWNSGSICYADSVK | VGRGGGYFDY | 3.53 ND 4.01 | 3.77 | 3/9 (4.50)
GFTFDDYAMT | GISWNSGSDDYADSVK | VGRGGGYFDY | 4.91 5.28 ND | 5.10 | 4/9 (4.77)
GFIFDDYAMH | GISWNSMSIGYADSVK | VGRGGGGFDY | ND 4.78 ND | 4.78 | 4/9 (4.06)
GFTWDDYAMH | GISTNSGSIGYALSVK | VGRGGGYFDY | 4.18 4.71 ND | 4.45 | 3/9 (5.06)
GFQFDDYAMH | GISWNSGSIGYADSVK | VGRGCGYFDY | 1.24 1.27 0.66 | 1.05 | 1/9 (4.36)
GFTFDDYAMH | GISWNGMSQGYADSVK | VGRGGGYFDY | 0.71 0.73 0.12 | 0.52 | 2/9 (5.90)
GFTFDDYAMH | GISWNHGSIGYADCVK | VGRMGGYFDY | 4.06 ND ND | 4.06 | 2/9 (3.44)
GFTFDDYAMH | GISWNSGSLGYADSVK | VGRGHGCFDY | 3.77 ND 4.96 | 4.37 | 1/9 (3.56)
GMEFDDYAMH | GISWNSGSIMYADSVK | VGRGGGYFDY | ND ND ND | ND | 0/9
GFTFDDYAMH | GISWNSGSIGYADSVK | FVRGGGLFDY | 2.07 1.64 1.22 | 1.64 | 1/9 (4.48)
GFTFDDYAMH | GWSWNLGSIGYADSVK | VGRGGGYFDY | 5.30 ND 5.13 | 5.21 | 7/9 (4.63)
GFVFDDYAMH | GISWNSGSIGYADSVK | CGRGGGYFDY | 1.34 1.01 0.59 | 0.98 | 0/9
GFTFDDYAMH | GISWNSGSIGYADSVK | VGRGGGLWDY | 2.39 2.58 2.20 | 2.39 | 6/9 (5.62)
GFTFDDYAMR | GISWNSGSIGYADSDK | VGRCGGYFDY | ND ND ND | ND | 0/9
GWTFDDYAMH | GISWNSGSIGYAYSVK | IGRGGGYFDY | 5.05 5.58 5.90 | 5.51 | 6/9 (4.84)
GFTFDDYAMH | GISWNSGSIGYDNEVK | VGRGGGYFDY | 3.04 2.83 3.00 | 2.96 | 0/9
GFTFDDYAMH | GISWNYGSIGYHDSVK | VCRGGGYFDY | ND 3.89 ND | 3.89 | 0/9
GFEHDDYAMH | GISWNSGSIGYADSVK | VGRGGDYFDY | ND ND ND | ND | 0/9
GFTFDDPAMH | GITWNSGSCGYADSVK | VGRGGGYFDY | 4.23 5.92 ND | 5.08 | 2/9 (4.58)
GFTFDDKCMH | GISANSGSIGYADSVK | VGRGGGYFDY | 4.09 ND ND | 4.09 | 2/9 (4.67)
GFTFDDYAMH | GISWNSGSIGYAVSVK | VGRGGGYFHS | ND ND ND | ND | 2/9 (4.73)
DFTRDDYAMR | GISWNSGSIGYADSVK | VGRGGGYFDY | 6.41 ND ND | 6.41 | 5/9 (4.48)
GETFDDYAMH | GISVNSGSIGVADSVK | VGRGGGYFDY | ND ND ND | ND | 0/9
GFTFDDYAME | GISWNTGSIGYADQVK | VGRGGGYFDY | ND ND ND | ND | 2/9 (4.15)
VFTFDDYAMH | GISWNSGSIGMADSVK | NGRGGGYFDY | 5.00 ND 4.90 | 4.95 | 3/9 (5.23)
GFTFDDPAMH | GISWNSGSIGYADSVK | VGCGGEYFDY | ND ND ND | ND | 0/9
GTTFDDYAPH | GISWNSGSIGYADSVK | VGRGGGYFDY | 5.16 4.10 ND | 4.63 | 0/9
GFRFDDYAMH | GPSWNSGSILYADSVK | VGRGGGYFDY | ND 4.39 5.20 | 4.80 | 2/9 (4.36)
GFTFDDVAMH | GISWNSSSIGYADSVK | VGRGGGYFDN | ND 2.51 ND | 2.51 | 0/9
GFTFDDYAMH | GISWNSGEIGYAMSVK | VGQGGGYFDY | 0.21 -0.15 -0.65 | -0.20 | 2/9 (2.54)
GFTFDDCAMH | GASWNSGSIGYEDSVK | VGRGGGYFDY | ND ND ND | ND | 0/9

Excerpt, the final 5 entries:

{"CDR-H1": "GTTFDDYAPH", "CDR-H2": "GISWNSGSIGYADSVK", "CDR-H3": "VGRGGGYFDY", "replicates, log10 nM": "5.16 4.10 ND", "log10 Kd (nM), mean": "4.63", "signal with controls": "0/9"}
{"CDR-H1": "GFRFDDYAMH", "CDR-H2": "GPSWNSGSILYADSVK", "CDR-H3": "VGRGGGYFDY", "replicates, log10 nM": "ND 4.39 5.20", "log10 Kd (nM), mean": "4.80", "signal with controls": "2/9 (4.36)"}
{"CDR-H1": "GFTFDDVAMH", "CDR-H2": "GISWNSSSIGYADSVK", "CDR-H3": "VGRGGGYFDN", "replicates, log10 nM": "ND 2.51 ND", "log10 Kd (nM), mean": "2.51", "signal with controls": "0/9"}
{"CDR-H1": "GFTFDDYAMH", "CDR-H2": "GISWNSGEIGYAMSVK", "CDR-H3": "VGQGGGYFDY", "replicates, log10 nM": "0.21 -0.15 -0.65", "log10 Kd (nM), mean": "-0.20", "signal with controls": "2/9 (2.54)"}
{"CDR-H1": "GFTFDDCAMH", "CDR-H2": "GASWNSGSIGYEDSVK", "CDR-H3": "VGRGGGYFDY", "replicates, log10 nM": "ND ND ND", "log10 Kd (nM), mean": "ND", "signal with controls": "0/9"}

Values reported by Engelhart et al. 2022, doi:10.1038/s41597-022-01779-4 (FLAb copy).